According to patent publication US20240058464A1, “COMBINATION THERAPY WITH FOR46 FOR CANCER” (Fortis Therapeutics, Inc., priority 2021, published 2024):

Experiments:
CD46 expression [1] = test: CD46 expression by RNA-sequencing in paired tumor biopsies before and after therapy; settings: RNA-seq log2-transformed counts;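 further: FFPE human tumor biopsies, exome-capture RNA-seq, reads aligned to GRCh37, counts normalized for GC content, length and depth, summed per gene, log2-transformed, samples paired before versus after therapy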
CD46 expression [2] = test: CD46 expression by RNA-sequencing in unpaired pre-treatment and post-treatment tumor biopsies; type: in vivo, human; settings: post-treatment biopsies, RNA-seq log2-transformed normalized counts

**Q.** `C[C@]12CC[C@H](O)CC1=CC[C@@H]1[C@@H]2CC[C@]2(C)C(c3cccnc3)=CC[C@@H]12` [abiraterone] was tested. Which “CD46 expression, Post-Treatment Biopsy” value (CD46 expression [1]; Prostate Cancer) did it give?
**A.** 6.03

**Q.** How did the “CD46 expression Post” value (CD46 expression [2]; Prostate Cancer) turn out when `CC(O)(CS(=O)(=O)c1ccc(F)cc1)C(=O)Nc1ccc(C#N)c(C(F)(F)F)c1` (centres unmarked) [bicalutamide] was run?
**A.** 6.13

**Q.** How did the “CD46 expression, Post-Treatment Biopsy” value (CD46 expression [1]; Colorectal Cancer) turn out when `CCCCCOC(=O)Nc1nc(=O)n([C@@H]2O[C@H](C)[C@@H](O)[C@H]2O)cc1F` [capecitabine] was run?
**A.** 6.31

**Q.** Which results are given for `N.N.[Cl][Pt][Cl]` [cisplatin]?
**A.** CD46 expression, Post-Treatment Biopsy (CD46 expression [1]; Bladder Cancer): 6.25; CD46 expression, Pre-Treatment Biopsy (CD46 expression [1]; Non-Small Cell Lung Cancer): 6.31

**Q.** `CC(=O)O[C@@]12CO[C@@H]1C[C@H](O)[C@@]1(C)C(=O)[C@H](O)C3=C(C)[C@@H](OC(=O)[C@H](O)[C@@H](NC(=O)OC(C)(C)C)c4ccccc4)C[C@@](O)([C@@H](OC(=O)c4ccccc4)[C@H]21)C3(C)C` [docetaxel] was tested. Which “CD46 expression Post” value (CD46 expression [2]; Non-Small Cell Lung Cancer) did it give?
**A.** 6.13

**Q.** For `COc1cccc2c1C(=O)c1c(O)c3c(c(O)c1C2=O)C[C@@](O)(C(=O)CO)C[C@@H]3O[C@H]1C[C@H](N)[C@H](O)[C@H](C)O1` [doxorubicin], which “CD46 expression Post” value (CD46 expression [2]; Breast Cancer) is on record?
**A.** 6.05

**Q.** `O=C1[O][Pt]2([NH][C@@H]3CCCC[C@H]3[NH]2)[O]C1=O` [oxaliplatin] was tested. Which “CD46 expression Post” value (CD46 expression [2]; Pancreatic Cancer) did it give?
**A.** 5.78
